Target: delF508-CFTR (Homo sapiens, UniProt P13569, DEL508-508)
Assay: SPQ halide-sensitive fluorescence dye assay for rescue of halide efflux (8-point concentration-response)
Format: cell-based
Conditions: CFBE41o- cells, 48 h
Procedure: The method of profiling can include detecting the rescue of halide efflux from a cell. The step of detecting a rescue of halide efflux from the cell can be monitored using the halide quenched dye 6-methoxy-N-(3-sulfopropyl)-quinolinium (SPQ, Molecular Probes Inc., Eugene, Oreg.). In this method, cells are treated with a compound as described herein for a period of time (e.g., 48 hours). The rescue or correction of halide efflux is then detected using the SPQ assay with the halide dye. […] Optionally, the halide efflux is chloride efflux. The method of screening can further comprise performing the method with multiple concentrations of the compound.
The compounds were initially subjected to the SPQ halide-sensitive fluorescence dye profiling assay for rescue or correction of membrane chloride ion permeability or transport with an 8-point concentration-response curve. The EC50 values for the compounds described herein were determined using SPQ (Table 1). The ΔSPQ value was calculated by determining the difference between the maximum and minimum SPQ values for the compounds.
To perform the SPQ high throughput screening assay, CFBE41o-cells were seeded into 96-well microtiter plates and were loaded with the fluorescent halide-sensitive dye, SPQ, in serum-containing culture medium. […] The plates were read twice over four minutes. […] The plate was read up to two times to complete the SPQ HTS assay.

Sequences of proteins named here, by UniProt entry; tags and fusion partners are left off. A line that says so, or that is headed by a name, gives the form on record, which may keep a tag or linker.
UniProt P13569, with tags, fused parts or gaps DEL508-508: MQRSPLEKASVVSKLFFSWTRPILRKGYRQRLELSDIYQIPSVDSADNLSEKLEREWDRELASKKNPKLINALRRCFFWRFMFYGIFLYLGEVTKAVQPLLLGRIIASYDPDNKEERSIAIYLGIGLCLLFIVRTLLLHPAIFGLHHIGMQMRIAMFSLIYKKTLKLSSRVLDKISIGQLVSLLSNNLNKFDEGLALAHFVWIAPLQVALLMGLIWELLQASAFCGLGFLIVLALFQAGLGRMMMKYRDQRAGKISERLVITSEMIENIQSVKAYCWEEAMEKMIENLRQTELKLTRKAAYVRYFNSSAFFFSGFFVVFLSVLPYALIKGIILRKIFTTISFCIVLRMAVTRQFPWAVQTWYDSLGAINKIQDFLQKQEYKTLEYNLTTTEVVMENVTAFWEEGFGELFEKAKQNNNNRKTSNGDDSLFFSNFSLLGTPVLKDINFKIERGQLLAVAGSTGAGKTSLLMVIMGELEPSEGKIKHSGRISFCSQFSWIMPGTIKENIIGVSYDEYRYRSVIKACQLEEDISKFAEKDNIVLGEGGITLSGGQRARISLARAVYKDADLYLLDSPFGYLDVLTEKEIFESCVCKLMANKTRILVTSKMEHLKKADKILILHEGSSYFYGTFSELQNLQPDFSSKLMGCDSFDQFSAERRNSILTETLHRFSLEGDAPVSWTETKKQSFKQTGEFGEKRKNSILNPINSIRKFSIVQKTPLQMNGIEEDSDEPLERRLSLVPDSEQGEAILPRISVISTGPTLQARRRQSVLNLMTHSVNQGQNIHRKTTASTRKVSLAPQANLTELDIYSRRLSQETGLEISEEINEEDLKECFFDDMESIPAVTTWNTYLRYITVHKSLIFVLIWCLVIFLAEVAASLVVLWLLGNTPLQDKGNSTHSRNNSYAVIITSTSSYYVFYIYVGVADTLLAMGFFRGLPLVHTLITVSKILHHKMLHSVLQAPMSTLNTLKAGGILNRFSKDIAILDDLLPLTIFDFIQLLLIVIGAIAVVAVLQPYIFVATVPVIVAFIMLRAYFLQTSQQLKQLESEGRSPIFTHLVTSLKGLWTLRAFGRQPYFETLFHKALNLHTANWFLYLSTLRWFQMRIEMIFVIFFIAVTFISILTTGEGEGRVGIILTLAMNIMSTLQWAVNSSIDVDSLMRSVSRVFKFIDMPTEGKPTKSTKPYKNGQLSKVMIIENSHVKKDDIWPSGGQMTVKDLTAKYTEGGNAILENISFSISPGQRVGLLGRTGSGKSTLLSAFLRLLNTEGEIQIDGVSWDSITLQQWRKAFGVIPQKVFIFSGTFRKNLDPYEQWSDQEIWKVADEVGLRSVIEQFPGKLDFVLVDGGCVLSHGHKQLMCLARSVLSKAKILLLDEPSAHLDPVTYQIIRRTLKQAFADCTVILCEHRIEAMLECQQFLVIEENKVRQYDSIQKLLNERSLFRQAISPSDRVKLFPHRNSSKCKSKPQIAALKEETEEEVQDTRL

## Cn1c(=O)c2[nH]c(NCCN3CCOCC3)nc2n(C)c1=O
  SPQ EC50: No effect

— patent US9546176B2, “Small molecule bicyclic and tricyclic CFTR correctors” (DISCOVERYBIOMED, INC., priority 2012, dated 2017)
